# Measured values from patent US8133683B2, “Methods for detecting biomolecules in a sample” (Taipei Medical University, priority 2009, dated 2012).
# Assay: Capturing capacity and rate of MD-Charcoal for FITC-labeled molecules
# Settings: for Remaining fluorescence intensities: 3 μM in 60 μl, Ex485/Em535, Gain 35, means±SD (n=3)
substance,measurement,setting,value
"Fluorescein-5-isothiocyanate cadaverine [FITC-cadaverine, reference compound]",Remaining fluorescence intensities (% of No Treatment),MD-Charcoal treatment 1 min,(0.4%)
same,Remaining fluorescence intensities,MD-Charcoal treatment 1 min,"1,443 ± 68^1b"
same,Remaining fluorescence intensities (% of No Treatment),MD-Charcoal treatment 5 min,(0.3%)
same,Remaining fluorescence intensities,MD-Charcoal treatment 5 min,"1,130 ± 36^1b"
same,Remaining fluorescence intensities (% of No Treatment),MD-Charcoal treatment 10 min,(0.3%)
same,Remaining fluorescence intensities,MD-Charcoal treatment 10 min,"1,020 ± 37^1b"
